Values of other authors, collected in patent publication US4835182A (priority 1987, dated 1989).

Details: most widely used drug in the treatment of brain tumors; cited from earlier work

SMILES: O=NN(CCCl)C(=O)NCCCl [BCNU]
- brain/plasma ratio: approximately 0.3
